This note sets out measurements from patent publication US5094857A, “Treatment of acne or androgenetic alopecia by topical administration of ethisterone” (priority 1987, dated 1992).

The target in assay [1] is androgen receptor (Mesocricetus auratus, UniProt A0A1U7QL32). Description: biochemical.
The target of assay [2] is T1, androgen receptor preparations of sebaceous glands (Mesocricetus auratus, UniProt A0A1U7QL32).
T1 construct: [3H]R1881 displacement with excess triamcinolone acetate
T1 sequence (A0A1U7QL32 1-900): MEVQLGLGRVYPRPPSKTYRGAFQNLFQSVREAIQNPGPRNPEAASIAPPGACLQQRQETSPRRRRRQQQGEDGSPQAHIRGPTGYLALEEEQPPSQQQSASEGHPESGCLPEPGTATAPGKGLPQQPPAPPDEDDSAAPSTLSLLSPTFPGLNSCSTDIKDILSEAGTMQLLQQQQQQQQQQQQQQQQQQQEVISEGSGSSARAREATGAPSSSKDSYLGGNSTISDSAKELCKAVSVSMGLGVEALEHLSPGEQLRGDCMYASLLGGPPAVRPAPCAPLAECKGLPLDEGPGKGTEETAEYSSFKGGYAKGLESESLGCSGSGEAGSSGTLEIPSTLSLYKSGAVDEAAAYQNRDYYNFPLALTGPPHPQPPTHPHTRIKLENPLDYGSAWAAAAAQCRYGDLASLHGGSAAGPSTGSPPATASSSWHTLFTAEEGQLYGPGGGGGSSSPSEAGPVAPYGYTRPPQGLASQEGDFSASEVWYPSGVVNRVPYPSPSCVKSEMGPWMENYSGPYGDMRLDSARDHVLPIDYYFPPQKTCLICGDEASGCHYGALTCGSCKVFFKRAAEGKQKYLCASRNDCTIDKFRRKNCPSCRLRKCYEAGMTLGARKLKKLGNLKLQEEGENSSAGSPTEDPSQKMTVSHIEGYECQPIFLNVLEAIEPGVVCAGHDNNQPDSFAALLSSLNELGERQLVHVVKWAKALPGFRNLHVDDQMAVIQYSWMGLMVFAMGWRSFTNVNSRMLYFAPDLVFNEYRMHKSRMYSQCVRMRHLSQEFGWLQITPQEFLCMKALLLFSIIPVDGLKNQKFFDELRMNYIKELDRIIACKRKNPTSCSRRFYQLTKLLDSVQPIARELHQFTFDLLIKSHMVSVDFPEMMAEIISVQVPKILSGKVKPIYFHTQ
Description: Competitive binding analysis (displacement of tritium-marked R 1881). On the set-up: species or system Syrian hamster. The settings on record: displacement of 8 nM tritium-marked R 1881, FIG. 1.

The structures appear in SMILES notation.

As a reminder, the Kd is the free concentration of one partner at which half of the binding sites on the other are occupied at equilibrium, for simple one-to-one binding. `C[C@]1(O)CC[C@H]2[C@@H]3CCC4=CC(=O)CCC4=C3C=C[C@@]21C` [R 1881, methyltrienolone] gave a Kd in assay [1] of 2.92 nM. Moreover, the “in vitro affinity at 50% blocking (rank order)” value in assay [2] was “R 1881, 17-alpha-PM, ethisterone, CPA, SL and dexamethasone”.
